# Measurements taken from PubChem BioAssay AID493056 (National Center for Advancing Translational Sciences (NCATS), 2011).
# Sequences of proteins named here, by UniProt entry; tags and fusion partners are left off.
# UniProt P34981, whole entry: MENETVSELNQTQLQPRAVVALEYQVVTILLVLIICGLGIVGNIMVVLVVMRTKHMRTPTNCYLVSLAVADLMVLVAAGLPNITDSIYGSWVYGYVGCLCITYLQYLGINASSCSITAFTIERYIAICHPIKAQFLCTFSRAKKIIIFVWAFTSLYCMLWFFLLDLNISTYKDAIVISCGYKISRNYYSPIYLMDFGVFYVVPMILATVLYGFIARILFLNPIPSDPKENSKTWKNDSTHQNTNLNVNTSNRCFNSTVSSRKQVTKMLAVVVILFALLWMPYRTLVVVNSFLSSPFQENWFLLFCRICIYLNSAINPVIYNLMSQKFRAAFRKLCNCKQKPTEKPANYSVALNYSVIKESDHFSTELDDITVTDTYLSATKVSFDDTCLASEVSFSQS
# This is a selection; strong and weak results do not stand in their true shares. Active and inactive are the calls of the source. No stated cut-off is given here; in the data, active means enhancement above about 30%; inactive means the rest.
# Target: Thyrotropin-releasing hormone receptor (Homo sapiens) (UniProt P34981)
# Assay: qHTS for Small Molecule Agonists and Allosteric Enhancers of Human TRH Receptor: Primary Screen for Enhancers; further: 0% is about no effect
# Conditions: TRHR cells, fluo-8 calcium fluorescence, EC20 TRH enhancement; at 2 µM; stronger effect = higher value
# Source text: NIH Chemical Genomics Center [NCGC] NIH Molecular Libraries Probe Centers Network [MLPCN] MLPCN Grant: MH089816-01 Assay Submitter (PI): Marvin Gershengorn This project aims to identify small drug-like molecules that activate (agonists) the thyrotropin releasing hormone (TRH) receptor (TRHR) or enhance its TRH-stimulated activity (allosteric enhancers). TRHR, a drug-accessible cell surface receptor expressed in specific brain regions, and its ligand TRH have been implicated in several central nervous system disorders, including depression and anxiety. […]
# For the HTS assay freshly prepared cells are plated at a density of 2000/well in 3 ul of complete DMEM medium containing 10% serum in 1536-well plates and cultured over night at 37 C in a humidified incubator with 5% CO2. […] For the assay, assay plates were loaded into the FDSS kinetic plate reader. […] The plate is measured for kinetically at 1 cycle/sec for 180 seconds and is considered to be the agonist portion of the assay (eg, compounds which activate a positive calcium response during this portion are flagged as potential agonists). Following the 180 second read, 1 ul of either an EC20 (positive modulation assay) is delivered by an onboard pipette head. […]
row,SMILES,enhancement
1,CCC(=O)N1C2C3N(C(=O)CC)C1C1N(C(=O)CC)C(C(N1C(=O)CC)N3C(=O)CC)N2C(=O)CC,inactive: 13.9%
